# In patent US20020160011A1, “ADJUVANT COMPOSITIONS FOR VACCINES” (priority 1997, published 2002):
# Test: Ability of other cytokines to enhance the effect of the QS21/MPL adjuvant
# Settings: cytokine added in place of IL-12
substance,measurement,value
IL-2: other cytokine tested with the QS21/MPL adjuvant,enhancement of the effect of the QS21/MPL adjuvant,unable to enhance
